Results reported in PMC3039983, “Cloning, Expression, and Characterization of Thermotolerant Manganese Superoxide Dismutase from Bacillus sp. MHS47” (International Journal of Molecular Sciences, 2011).

Sequences of proteins named here, by UniProt entry; tags and fusion partners are left off. Residues count along the entry.
UniProt E9LK91, 1-203 limits assumed: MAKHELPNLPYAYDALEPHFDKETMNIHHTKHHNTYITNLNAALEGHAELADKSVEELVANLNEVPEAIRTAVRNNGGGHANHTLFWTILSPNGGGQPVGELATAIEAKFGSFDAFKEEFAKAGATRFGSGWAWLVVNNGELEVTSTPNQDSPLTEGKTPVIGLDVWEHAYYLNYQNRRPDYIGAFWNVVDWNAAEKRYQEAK

Biological target: MnSOD47 (Bacillus sp. MHS47, UniProt E9LK91)
Test: native PAGE activity staining (NBT)
Conditions: 10 mM azide, pH 7.5, 37 °C, 1 h preincubation; qualitative inhibition

[N-]=[N+]=N
native PAGE activity staining (NBT): The enzyme’s activity was inhibited by sodium azide (NaN3)
